## AlphaSeq binding of Ab-14 heavy chain variants to a spike HR2 peptide

Data: MIT Lincoln Laboratory AlphaSeq set, Engelhart et al. 2022, doi:10.1038/s41597-022-01779-4, as distributed in FLAb.

The target is the same throughout: PDVDLGDISGINAS, from the HR2 region of SARS-CoV-2 spike.

The variants keep the light chain, the linker and the frameworks of Ab-14 (scFv order VH, the linker GGGGSGGGGSGGGGS, VL).
VH: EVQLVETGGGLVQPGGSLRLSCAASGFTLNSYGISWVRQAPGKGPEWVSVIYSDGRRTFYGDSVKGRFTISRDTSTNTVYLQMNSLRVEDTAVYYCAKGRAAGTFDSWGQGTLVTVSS
VL: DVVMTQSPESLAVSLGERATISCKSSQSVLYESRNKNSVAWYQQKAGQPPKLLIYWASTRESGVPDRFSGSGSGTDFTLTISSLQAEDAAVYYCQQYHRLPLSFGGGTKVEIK

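The parent was found by panning a naive human phage display library on the peptide. Library AAYL49 holds single substitutions and randomly drawn double and triple substitutions in the CDRs. Affinity was read by AlphaSeq, a pooled yeast mating assay with surface-displayed partners. Binding brings cells together so that they mate, and sequencing counts the barcode pairs among the diploids. Read counts were normalised to the haploid input and turned into Kd by a linear fit to BCL2-family pairs of known affinity, for each replicate. The assay was run in three technical replicates.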

Each variant is given by its three heavy chain CDRs, as the data file delimits them; those of the parent are GFTLNSYGIS, VIYSDGRRTFYGDSVK, GRAAGTFDS. Numbers give log10(Kd / nM), so 0 is 1 nM and 3 is 1 µM. Smaller is tighter. An entry "n.d." has no value in the source: the pair was not observed among the diploids in that replicate. This suggests poor binding but is not conclusive. For reference, the parent read 0.65 as the reference entry and 4.11 (one replicate of three) as a member of this library. Three control strains display no target. For library AAYL49, 15% of the pairings with them gave a signal, with a median of 4.06 and one signal in twenty below 2.83, so weak values seen in few replicates may be background. The control count says in how many pairings with the empty strains this scFv gave a signal, with their mean in brackets.

| CDR-H1 | CDR-H2 | CDR-H3 | replicates, log10 nM | empty controls |
|---|---|---|---|---|
| GFTLNSVGIS | VIYSDMRRTFYGDMVK | GRAAGTFDS | 2.91 n.d. n.d. | 0 of 9 |
| GFTNNQYGIS | VIYSDFRRTFYGDSVK | GRAAGTFDS | n.d. n.d. n.d. | 0 of 9 |
| GFTLNSYGIS | VFYSDGRRWRYGDSVK | GRAAGTFDS | 3.50 3.93 n.d. | 0 of 9 |
| GFTLRSYGIS | VIYSDGRRTFYGDSVI | HRAAGTFDS | 1.70 2.88 2.25 | 0 of 9 |
| GFTLNSYGIS | VIGSDGRRTFYGDSVK | GRIAGTFDS | n.d. 3.03 3.42 | 2 of 9 (4.05) |
| GFTLSSYGIS | VIYSDGRRTFYGDSVK | GRAAATFDS | 0.23 0.60 0.20 | 2 of 9 (3.44) |
| GFTLNSYGIS | VRYRDGRRTFYGDSVK | GRAAGTFTS | n.d. n.d. n.d. | 0 of 9 |
| GFTLNSYGIS | VIYSSGRRTFYGDSVK | GRAAGFFWS | 5.87 n.d. n.d. | 2 of 9 (4.10) |
| GFTLNSYAIS | VIYSDGRRTFDGDSVK | GRAAQTFDS | n.d. n.d. n.d. | 0 of 9 |
| KFTLNSYGIS | VIYVDGRRTFYGDSVK | GRAEGTFDS | 3.72 n.d. n.d. | 0 of 9 |
| GFTLNSYGIS | VIYSDIRRTFYGDSVK | GRAAGTFSS | n.d. n.d. n.d. | 0 of 9 |
| GFTLNSYGIS | SIGSDGRRTFYGDSVK | GRAAGRFDS | 3.22 n.d. n.d. | 3 of 9 (4.17) |
| GFTLNSYGIS | VIYSYGRRTFYGDSVK | GRAAGWFDS | n.d. 2.51 n.d. | 0 of 9 |
| GFTHNSYGIS | VIYSDGRRTFYGDSIK | GRAAGTSDS | n.d. 4.30 n.d. | 1 of 9 (4.09) |
| GFTLNSYGIS | VIYSDGRRTFYGDSVK | GRAALNFDS | n.d. n.d. n.d. | 2 of 9 (3.60) |
| GFTLNSYGIS | VIYSDYRRTFYGPSVK | GYAAGTFDS | n.d. n.d. 3.71 | 2 of 9 (3.52) |
| GSTLFSYGIS | VIYSDGRRTFYGDSVI | GRAAGTFDS | n.d. n.d. n.d. | 0 of 9 |
| GFTLNSYGIS | VWYSTGMRTFYGDSVK | GRAAGTFDS | n.d. n.d. n.d. | 1 of 9 (4.55) |
| GFTLNSYGIS | IIYSDGRATFYGDSVK | GRAAGTFDS | n.d. n.d. n.d. | 0 of 9 |
| GFTKNSYGIS | VIYWDGRMTFYGDSVK | GRAAGTFDS | n.d. n.d. n.d. | 0 of 9 |
| GFCLNSYGIS | VIYSDGRQTFYGDSVK | GRANGTFDS | 5.81 n.d. 3.61 | 1 of 9 (5.29) |
| GFTLNEYGIS | VIYSDGRQTFYGDSVK | GHAAGTFDS | 1.91 1.44 1.89 | 1 of 9 (4.12) |
| GFTLNSYGIS | VIYSDYRRTFYGDSVK | GFAAGTFDS | n.d. n.d. n.d. | 0 of 9 |
| GHTLDSYGIS | VTYSDGRRTFYGDSVK | GRAAGTFDS | n.d. n.d. n.d. | 0 of 9 |
| GFTLNSYGIA | VIYSDGRRNFYGDSVK | GRAAGTFDL | n.d. 4.97 4.32 | 5 of 9 (4.35) |
| GFTLNSYGIS | VNYSDGRRTMYGDSVR | GRAAGTFDS | n.d. 4.51 n.d. | 3 of 9 (5.41) |
| GFTLNSYGIW | VIYKDGRRTFYGDSVK | GCAAGTFDS | n.d. 3.75 n.d. | 0 of 9 |
| GFTLNSYGIS | VRYTDGRHTFYGDSVK | GRAAGTFDS | n.d. 3.96 4.41 | 8 of 9 (4.46) |
| GFTLNSYGIS | VRYSDGRRGFYGWSVK | GRAAGTFDS | n.d. n.d. n.d. | 0 of 9 |
| GFSLNSYGIG | VIYSDGRRTFYGDSVA | GRAAGTFDS | n.d. n.d. n.d. | 1 of 9 (3.29) |
| GFTLNSYGIS | VIYSDGRRWFYGPSWK | GRAAGTFDS | 4.03 n.d. 4.06 | 3 of 9 (4.23) |
| GFTLVSYGIS | VIYSDGRRTFYGDSVK | GRAAGTFDS | 1.69 2.48 2.52 | 0 of 9 |
| GFTLNSYRII | VIYSKGRRTFYGDSVK | GRAAGTFDS | n.d. n.d. n.d. | 0 of 9 |
| GFTLNSYGIS | VIYSDGRRTFYGDSVK | GKAAGTFDS | 0.49 0.70 0.69 | 3 of 9 (5.29) |
| FFTLNSYGII | VIYSDGRRTKYGDSVK | GRAAGTFDS | 3.29 n.d. n.d. | 1 of 9 (3.75) |
| GFTLNSYGIS | VIYSDGERTFYGISVK | GRAAGEFDS | n.d. n.d. n.d. | 0 of 9 |
| NFTLNSYGIS | HIYSDGRRTFYGDSVK | GRAAGTFDS | 3.30 n.d. 4.00 | 4 of 9 (4.57) |
| GFTLNSHGIS | VIYYDGRRTFYGDSCK | GRAAGTFDS | n.d. n.d. n.d. | 1 of 9 (4.23) |